Assays:
Assay type in all cases: binding
[1] = target: T1, doubly phosphorylated p38-alpha kinase (Homo sapiens, UniProt Q16539); assay: Fluorescence affinity assay, doubly phosphorylated p38-alpha kinase
T1 construct: 6xHis ([…], seen only in the listing) (C); purchased Roche Applied Diagnostics
Description: (§1) This fluorescence affinity assay is utilized in an affinity-based screen to identify small molecules which bind into switch control pockets of protein kinases. Binding of small molecule switch inhibitors displaces the switch control ligand phenylalanine of the DFG motif into an orientation which sterically blocks the ATP pocket. Such inhibitor-induced blockade of the ATP pocket is registered as an inhibition of binding of the fluoroprobe into the ATP pocket.
(§2) • 1. p38-alpha kinase • a. […] Polarstar Optima plate reader (BMG)
• 1. […] This dilution can be done automatically on a Tecan (or similar) robotic workstation or performed manually. • 3. Mix Solution A with the diluted compound solutions following Step 3 of Table 22. This step can be performed automatically on a Tecan (or similar) robotic workstation or performed manually. • 4. Incubate at 30° C. or room temp for 2 h, depending on protein stability. • 5. Read at emission wavelength 420 nm upon excitation at 340 nm. […]
A ratio greater than 1.0 indicates a preference for inhibiting the unphosphorylated form of p38-alpha kinase relative to the doubly phosphorylated form. A ratio less than 1.0 indicates a preference for inhibiting the doubly phosphorylated form of p38-alpha kinase relative to the unphosphorylated form.

By UniProt entry, the sequences of proteins in these tests, tags left out. Chains listed by the source or under a name are the forms on record and can include a tag or linker.
UniProt Q16539, with tags, fused parts or gaps: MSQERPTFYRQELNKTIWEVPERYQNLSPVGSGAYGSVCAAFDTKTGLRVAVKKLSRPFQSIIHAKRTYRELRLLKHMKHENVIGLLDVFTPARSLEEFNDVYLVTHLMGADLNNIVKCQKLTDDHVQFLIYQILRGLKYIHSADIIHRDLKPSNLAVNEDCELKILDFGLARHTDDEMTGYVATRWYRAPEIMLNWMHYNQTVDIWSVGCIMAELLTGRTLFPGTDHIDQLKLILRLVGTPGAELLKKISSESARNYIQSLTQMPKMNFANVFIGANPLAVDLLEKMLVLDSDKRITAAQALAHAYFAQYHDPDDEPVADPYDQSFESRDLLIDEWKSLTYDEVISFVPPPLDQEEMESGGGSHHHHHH
UniProt Q16539, with tags, fused parts or gaps DEL261-261: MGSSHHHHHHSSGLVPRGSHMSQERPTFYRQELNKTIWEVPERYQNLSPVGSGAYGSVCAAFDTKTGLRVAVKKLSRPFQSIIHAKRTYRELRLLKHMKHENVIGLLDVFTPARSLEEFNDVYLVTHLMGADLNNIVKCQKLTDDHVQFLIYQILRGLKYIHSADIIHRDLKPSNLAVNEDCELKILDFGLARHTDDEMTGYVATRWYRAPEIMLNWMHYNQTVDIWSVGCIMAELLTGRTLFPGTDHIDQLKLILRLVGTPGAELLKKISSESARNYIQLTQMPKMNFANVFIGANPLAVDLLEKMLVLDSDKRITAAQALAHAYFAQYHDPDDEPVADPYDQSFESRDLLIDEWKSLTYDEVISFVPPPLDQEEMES

[2] = target: T2, unphosphorylated p38-alpha kinase (Homo sapiens, UniProt Q16539, DEL261-261); assay: Fluorescence affinity assay, unphosphorylated p38-alpha kinase
T2 construct: 48 (6×His-TEV tag, full length); 6×His-TEV tag (N); purchased Decode Genetics, Inc; host or cells: E. coli
Description: as §1, §2
• 1. […] This dilution can be done automatically on a Tecan (or similar) robotic workstation or performed manually. • 3. […] Read at emission wavelength 420 nm upon excitation at 340 nm.
The reaction was initiated by addition of the enzyme. […] By comparison of RFU (relative fluorescence units) values with that of a control (in the absence of small molecule modulators), the percentage of inhibition at each concentration of the small molecules was calculated. IC50 values for the small molecule modulators were calculated from the % inhibition values obtained at a range of concentrations of the small molecule modulators using Prism (available from GraphPad, Inc.). When time-dependent inhibition was assessed, the plate was read at multiple reaction times such as 0.5, 1, 2, 3, 4 and 6 hours. The IC50 values were calculated at each time point. […]

[3] = target: T1, doubly phosphorylated p38-alpha kinase; assay: Thermal denaturation of doubly phosphorylated p38-alpha kinase; details: 0.5 μM p38-alpha kinase, 20 μM small molecule
Experimental: (§3) Denaturation was monitored by measuring the absolute absorbance of the solutions at an appropriate wavelength (typically 230 nm and 240 nm) as a function of temperature. As the protein became denatured, additional UV absorbing functional groups became exposed causing an increase in absorbance at the melting temperature. […] The thermal data were collected using Agilent spectrophotometers and ChemStation UV/Vis Thermal Denaturation software.
The final concentration was 0.5 μM p38-alpha kinase and 20 μM small molecule. The final protein and buffer solution was mixed gently using a pipetter to minimize denaturing due to over aggressive mixing. The final solution was transferred to a 50 μL cuvette for analysis.
The protein and buffer solution was mixed gently using a pipetter to minimize denaturing due to over aggressive mixing. The final solution was transferred to a 50 μL cuvette for analysis.
(§4) A first derivative calculation with data smoothing was applied to the resulting data to report the point of inflection as the melting temperature.

[4] = target: T2, unphosphorylated p38-alpha kinase; assay: Thermal denaturation of unphosphorylated p38-alpha kinase; details: 15 μM small molecule
Description: as §3
The final protein and buffer solution was mixed gently using a pipetter to minimize denaturing due to over aggressive mixing. The final solution was transferred to a 50 μL cuvette for analysis.
The final solution was transferred to a 50 μL cuvette for analysis.
as §4

CC(C)(C)c1cc(NC(=O)Nc2cccc(Cl)c2Cl)n(-c2cccc(CC(N)=O)c2)n1 [Example 69]
IC50 [1]: 11 nM | Ratio IC50s ([2]; doubly phosphorylated vs unphosphorylated p38-alpha, >1.0 = preference for unphosphorylated form): 1.2 | IC50 ([2]; unphosphorylated p38-alpha kinase): 9 nM | ΔTm (° C.) relative to doubly phosphorylated p38 [3]: 9.1 °C | ΔTm (° C.) relative to unphosphorylated apo p38 [4]: 13.1 °C
